ChEMBL document CHEMBL1152112, “1-Phenyl-[2H]-tetrahydropyridazin-3-one, A-53612, a selective orally active 5-lipoxygenase inhibitor” (Bioorg Med Chem Lett, 1992)

Columns and labels:
Glycine max lipoxygenase = assay: Inhibitory activity against soybean 15-lipoxygenase was evaluated at 100 uM
Ovis aries COX-1 = assay: Inhibitory activity against sheep seminal vesicle cyclooxygenase was evaluated at 300 uM

inhibition (Glycine max lipoxygenase): 25%
inhibition (Ovis aries COX-1): 5%
SMILES: O=C1CCCN(c2ccccc2)N1
